Values of other authors in patent publication US20120037840A1, “USE OF MAGNETIC NANOPARTICLES TO REMOVE ENVIRONMENTAL CONTAMINANTS” (priority 2008, published 2012).

Conditions: octanol-water coefficient; cited from earlier work

With `c1ccc2ccccc2c1` [Naphthalene, naphthalene] as the molecule, how does the Kow read?
The Kow was 3235.
